Tests used:
[1] = target: human C5 (human) (UniProt P01031); test: Gyrolab free-antigen assay in 100% serum; serum ID 1; average of five antibody concentrations
[2] = target: human C5 (human) (UniProt P01031); test: Gyrolab free-antigen assay in 100% serum; serum ID 2; average of five antibody concentrations
[3] = target: human C5 (human) (UniProt P01031); test: Gyrolab free-antigen assay in 100% serum (human serum 1:40 in horse serum); serum ID 3; 1000 ng/mL antibody
[4] = target: human C5 (human) (UniProt P01031); test: Gyrolab free-antigen assay in 100% serum (human serum 1:40 in horse serum); serum ID 3; 4000 ng/mL antibody
[5] = target: human C5 (human) (UniProt P01031); test: Gyrolab free-antigen assay in 100% serum (human serum 1:40 in horse serum); serum ID 1; 5000 ng/mL antibody
[6] = target: human C5 (human) (UniProt P01031); test: Gyrolab free-antigen assay in 100% serum (human serum 1:40 in horse serum); serum ID 1; 1000 ng/mL antibody
[7] = target: human C5 (human) (UniProt P01031); test: Gyrolab free-antigen assay in 100% serum (human serum 1:40 in horse serum); serum ID 3; 5000 ng/mL antibody
[8] = target: human C5 (human) (UniProt P01031); test: Gyrolab free-antigen assay in 100% serum (human serum 1:40 in horse serum); serum ID 1; 3000 ng/mL antibody
[9] = target: human C5 (human) (UniProt P01031); test: Gyrolab free-antigen assay in 100% serum (human serum 1:40 in horse serum); serum ID 3; 3000 ng/mL antibody
[10] = target: human C5 (human) (UniProt P01031); test: Gyrolab free-antigen assay in 100% serum (human serum 1:40 in horse serum); serum ID 1; 2000 ng/mL antibody
[11] = target: human C5 (human) (UniProt P01031); test: Gyrolab free-antigen assay in 100% serum (human serum 1:40 in horse serum); serum ID 2; 4000 ng/mL antibody
[12] = target: human C5 (human) (UniProt P01031); test: Gyrolab free-antigen assay in 100% serum; serum ID 3; average of five antibody concentrations
[13] = target: human C5 (human) (UniProt P01031); test: Gyrolab free-antigen assay; undiluted human serum ID2 + 100 µg/mL Crovalimab
[14] = target: human C5 (human) (UniProt P01031); test: Gyrolab free-antigen assay in 100% serum (human serum 1:40 in horse serum); serum ID 2; 1000 ng/mL antibody
[15] = target: human C5 (human) (UniProt P01031); test: Gyrolab free-antigen assay in 100% serum (human serum 1:40 in horse serum); serum ID 2; 3000 ng/mL antibody
[16] = target: human C5 (human) (UniProt P01031); test: Gyrolab free-antigen assay in 100% serum (human serum 1:40 in horse serum); serum ID 2; 5000 ng/mL antibody
[17] = target: human C5 (human) (UniProt P01031); test: Gyrolab free-antigen assay in 100% serum (human serum 1:40 in horse serum); serum ID 1; 4000 ng/mL antibody
[18] = target: human C5 (human) (UniProt P01031); test: Gyrolab free-antigen assay in 100% serum (human serum 1:40 in horse serum); serum ID 3; 2000 ng/mL antibody
[19] = target: human C5 (human) (UniProt P01031); test: Gyrolab free-antigen assay in 100% serum; average over all sera; standard deviation 0.012 nM
[20] = target: human C5 (human) (UniProt P01031); test: Gyrolab free-antigen assay in 100% serum (human serum 1:40 in horse serum); serum ID 2; 2000 ng/mL antibody
[21] = target: human C5 (human) (UniProt P01031); test: Gyrolab free-antigen assay; undiluted human serum ID3 + 100 µg/mL Crovalimab
[22] = target: human C5 (human) (UniProt P01031); test: Gyrolab free-antigen assay; undiluted human serum ID1 + 100 µg/mL Crovalimab

Kd [1]: 0.047 nM
Kd [2]: 0.054 nM
Kd [3]: 0.06 nM
Kd [4]: 0.051 nM
Kd [5]: 0.049 nM
Kd [6]: 0.046 nM
Kd [7]: 0.048 nM
Kd [8]: 0.056 nM
Kd [9]: 0.042 nM
Kd [10]: 0.036 nM
Kd [11]: 0.043 nM
Kd [12]: 0.048 nM
free target concentration [13]: 8.2 ng/mL
Kd [14]: 0.072 nM
Kd [15]: 0.041 nM
Kd [16]: 0.076 nM
Kd [17]: 0.046 nM
Kd [18]: 0.039 nM
Kd [19]: 0.05 nM
Kd [20]: 0.04 nM
free target concentration [21]: 7.6 ng/mL
free target concentration [22]: 6.5 ng/mL
Substance: Crovalimab (antibody)
